## Yeast mating assay 2: variants of the scFv Ab-91

Binding partner: SARS-CoV-2 spike HR2 peptide, sequence PDVDLGDISGINAS.

Ab-91 is the parent antibody, in scFv form: VL, then a (GGGGS)3 linker, then VH. The light chain is unchanged in all variants.
VL: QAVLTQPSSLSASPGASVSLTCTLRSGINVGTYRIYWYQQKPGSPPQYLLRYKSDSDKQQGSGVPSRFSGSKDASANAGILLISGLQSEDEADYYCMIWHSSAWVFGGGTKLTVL
VH: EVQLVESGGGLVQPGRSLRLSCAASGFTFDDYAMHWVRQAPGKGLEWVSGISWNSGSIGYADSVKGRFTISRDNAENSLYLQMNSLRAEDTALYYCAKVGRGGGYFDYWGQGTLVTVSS

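Phage display of a naive human antibody library on the peptide gave the parent. The library (AAYL51) carries one to three amino acid substitutions per variant, with no insertions or deletions. AlphaSeq pools MATa yeast showing the antibodies with MATalpha yeast showing the peptide. Mating (16 h, 30 °C) was followed by selection of diploids and sequencing of their barcodes. Each replicate has its own calibration line, from reference interactions of the BCL2 family. The assay was run in three technical replicates.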

The parent's heavy chain CDRs are GFTFDDYAMH, GISWNSGSIGYADSVK, VGRGGGYFDY; each variant's own CDRs replace them letter for letter. The read-out is the apparent dissociation constant on a log10 scale (nM): the lower, the stronger. Averages over replicates are reported, and they cover detected replicates only. "ND" marks a missing value. The strain was present, yet no cells mated with the target were sequenced in that replicate, which points to weak or no binding. In this assay the parent's reference entry averaged 1.86; its copy inside this library read 0.88. Background: pairings of library AAYL51 with three empty control strains gave a value in 21% of cases (median 4.54, 5th percentile 3.26). Values in that range, when seen in few replicates, are hard to tell from nonspecific mating. For each scFv, signals with the empty controls are counted beside the result, with their mean in brackets.

{"CDR-H1": "GFTFDDYAMH", "CDR-H2": "GIYWNIGSIGYADSVK", "CDR-H3": "VGRGHGYFDY", "log10 Kd, replicates": "5.34 / 5.36 / ND", "mean log10 Kd (nM)": "5.35", "signal with controls": "4/9 (5.16)"}
{"CDR-H1": "GFTFDDYAMH", "CDR-H2": "GISWNSRSIKYADSVK", "CDR-H3": "VGRGGGYFGY", "log10 Kd, replicates": "4.57 / ND / ND", "mean log10 Kd (nM)": "4.57", "signal with controls": "0/9"}
{"CDR-H1": "GFTFDDYAMH", "CDR-H2": "GISWNFGSIIYAGSVK", "CDR-H3": "VGRGGGYFDY", "log10 Kd, replicates": "ND / ND / ND", "mean log10 Kd (nM)": "ND", "signal with controls": "1/9 (3.01)"}
{"CDR-H1": "GFTFDDYAMH", "CDR-H2": "GISWNSGSIGYADSVK", "CDR-H3": "VLRGSGYFDY", "log10 Kd, replicates": "4.57 / ND / 4.80", "mean log10 Kd (nM)": "4.69", "signal with controls": "6/9 (3.98)"}
{"CDR-H1": "GFTFDDYAMH", "CDR-H2": "GISPSSGSIGMADSVK", "CDR-H3": "VGRGGGYFDY", "log10 Kd, replicates": "1.55 / 1.66 / 1.03", "mean log10 Kd (nM)": "1.41", "signal with controls": "0/9"}
{"CDR-H1": "GFTFDDYEMH", "CDR-H2": "GISWNSGSIGYCDSVK", "CDR-H3": "VGRGGGNFDY", "log10 Kd, replicates": "4.47 / 4.75 / 5.39", "mean log10 Kd (nM)": "4.87", "signal with controls": "4/9 (5.31)"}
{"CDR-H1": "GHTFDDYAMH", "CDR-H2": "GISQNSGSIGYADSVK", "CDR-H3": "VGRGGGYFAY", "log10 Kd, replicates": "4.81 / ND / ND", "mean log10 Kd (nM)": "4.81", "signal with controls": "2/9 (5.10)"}
{"CDR-H1": "GFTFYDYAMH", "CDR-H2": "GISWNSGSIGYADSVK", "CDR-H3": "VGRGGKYFVY", "log10 Kd, replicates": "ND / ND / ND", "mean log10 Kd (nM)": "ND", "signal with controls": "1/9 (4.48)"}
{"CDR-H1": "GFTIDDYAMH", "CDR-H2": "GISWNKGGIGYADSVK", "CDR-H3": "VGRGGGYFDY", "log10 Kd, replicates": "ND / ND / ND", "mean log10 Kd (nM)": "ND", "signal with controls": "0/9"}
{"CDR-H1": "GFTFDDYAMH", "CDR-H2": "GISWGSGSIGYADSTK", "CDR-H3": "VYRGGGYFDY", "log10 Kd, replicates": "4.10 / 5.49 / ND", "mean log10 Kd (nM)": "4.80", "signal with controls": "5/9 (5.31)"}
{"CDR-H1": "GFTFDDYIMH", "CDR-H2": "GISWNRGSIGYAHSVK", "CDR-H3": "VGRGGGYFDY", "log10 Kd, replicates": "ND / ND / ND", "mean log10 Kd (nM)": "ND", "signal with controls": "0/9"}
{"CDR-H1": "GFTFDDYTMH", "CDR-H2": "GISWNSGSIGYADSLK", "CDR-H3": "VGRYGGYFDY", "log10 Kd, replicates": "5.67 / ND / ND", "mean log10 Kd (nM)": "5.67", "signal with controls": "1/9 (6.17)"}
{"CDR-H1": "GFTFDDYAMH", "CDR-H2": "GISWNSGSGGWADSVK", "CDR-H3": "VGRGGGYFDY", "log10 Kd, replicates": "4.93 / 5.14 / ND", "mean log10 Kd (nM)": "5.04", "signal with controls": "6/9 (4.87)"}
{"CDR-H1": "GFTFDDYAMH", "CDR-H2": "GISWNSYSIGYADSVK", "CDR-H3": "TGRGGGYFDM", "log10 Kd, replicates": "1.53 / 1.47 / 0.92", "mean log10 Kd (nM)": "1.31", "signal with controls": "1/9 (4.78)"}
{"CDR-H1": "GFTSDDAAMH", "CDR-H2": "GISWNSGSIGYADSVK", "CDR-H3": "VGRGGGYFDG", "log10 Kd, replicates": "5.95 / 4.84 / ND", "mean log10 Kd (nM)": "5.40", "signal with controls": "3/9 (4.36)"}
{"CDR-H1": "GFTFDDYAMH", "CDR-H2": "GISWNSGWIGYACSVK", "CDR-H3": "VGRGGGYSDY", "log10 Kd, replicates": "ND / ND / ND", "mean log10 Kd (nM)": "ND", "signal with controls": "1/9 (3.24)"}
{"CDR-H1": "GFTFDDYAMH", "CDR-H2": "GISWNVGWIGYADSVK", "CDR-H3": "VGRGGGYFDY", "log10 Kd, replicates": "4.21 / 6.31 / ND", "mean log10 Kd (nM)": "5.26", "signal with controls": "7/9 (4.49)"}
{"CDR-H1": "GFTFDDYAMH", "CDR-H2": "GWSWNSGSIGWADSVK", "CDR-H3": "VGHGGGYFDY", "log10 Kd, replicates": "ND / ND / ND", "mean log10 Kd (nM)": "ND", "signal with controls": "0/9"}
{"CDR-H1": "GFTFDDRAMH", "CDR-H2": "GISWNSGEIGYADSVK", "CDR-H3": "PGRGGGYFDY", "log10 Kd, replicates": "ND / 4.55 / ND", "mean log10 Kd (nM)": "4.55", "signal with controls": "1/9 (3.73)"}
{"CDR-H1": "GGTFDDYAMH", "CDR-H2": "GISWNSGWIGYADSVK", "CDR-H3": "VGRGGGYFDA", "log10 Kd, replicates": "3.94 / ND / ND", "mean log10 Kd (nM)": "3.94", "signal with controls": "1/9 (4.17)"}
{"CDR-H1": "GFCFDDYAMH", "CDR-H2": "GISWNSGSIGYAWSVK", "CDR-H3": "VGRGGGGFDY", "log10 Kd, replicates": "ND / 3.68 / ND", "mean log10 Kd (nM)": "3.68", "signal with controls": "0/9"}
{"CDR-H1": "GFTFDFYAMH", "CDR-H2": "GGSWNSGSIGYADDVK", "CDR-H3": "VGRGGGYFDY", "log10 Kd, replicates": "4.10 / ND / ND", "mean log10 Kd (nM)": "4.10", "signal with controls": "1/9 (3.80)"}
{"CDR-H1": "GFTFDDYAMH", "CDR-H2": "GQSWNSGSIGYEDSVK", "CDR-H3": "VGRGGGYFDY", "log10 Kd, replicates": "ND / ND / ND", "mean log10 Kd (nM)": "ND", "signal with controls": "2/9 (3.50)"}
{"CDR-H1": "GFTFDDYAMH", "CDR-H2": "GISDNSGSIGYADSVK", "CDR-H3": "VGRGGVYFNY", "log10 Kd, replicates": "ND / ND / ND", "mean log10 Kd (nM)": "ND", "signal with controls": "5/9 (4.21)"}
{"CDR-H1": "GFTFDDYAMH", "CDR-H2": "GIKWNSGSIGYADSVK", "CDR-H3": "VGRGGGYFDY", "log10 Kd, replicates": "4.09 / ND / 4.73", "mean log10 Kd (nM)": "4.41", "signal with controls": "3/9 (4.44)"}
{"CDR-H1": "GFTFDDYAMH", "CDR-H2": "GNHWNSGSIGYADSVF", "CDR-H3": "VGRGGGYFDY", "log10 Kd, replicates": "ND / ND / 4.99", "mean log10 Kd (nM)": "4.99", "signal with controls": "5/9 (4.47)"}
{"CDR-H1": "GFTFDDYAMN", "CDR-H2": "KISWNSGSIGYADSVK", "CDR-H3": "VGRGGGYCDY", "log10 Kd, replicates": "ND / ND / ND", "mean log10 Kd (nM)": "ND", "signal with controls": "0/9"}
{"CDR-H1": "GFGFDDYEMH", "CDR-H2": "GISWNSGSIGYADSVK", "CDR-H3": "VGRGGGYFDY", "log10 Kd, replicates": "ND / ND / 3.00", "mean log10 Kd (nM)": "3.00", "signal with controls": "0/9"}
{"CDR-H1": "GFTFDDYAMQ", "CDR-H2": "GISWNSGSIGYPDSIK", "CDR-H3": "VGRGGGYFDY", "log10 Kd, replicates": "ND / ND / ND", "mean log10 Kd (nM)": "ND", "signal with controls": "1/9 (3.77)"}
{"CDR-H1": "GFMFDDYAMH", "CDR-H2": "AISWNSCSIGYADSVK", "CDR-H3": "VGRGGGYFDY", "log10 Kd, replicates": "3.79 / 4.29 / ND", "mean log10 Kd (nM)": "4.04", "signal with controls": "1/9 (3.77)"}
{"CDR-H1": "CFTDDDYAMH", "CDR-H2": "GISFNSGSIGYADSVK", "CDR-H3": "VGRGGGYFDY", "log10 Kd, replicates": "ND / 4.80 / ND", "mean log10 Kd (nM)": "4.80", "signal with controls": "1/9 (3.28)"}
{"CDR-H1": "GCTFEDYAMH", "CDR-H2": "GISWNSGSIGYADSAK", "CDR-H3": "VGRGGGYFDY", "log10 Kd, replicates": "ND / ND / ND", "mean log10 Kd (nM)": "ND", "signal with controls": "1/9 (2.64)"}

Extract of 5 entries:

CDR-H1	CDR-H2	CDR-H3	log10 Kd, replicates	mean log10 Kd (nM)	signal with controls
GCTFEDYAMH	GISWNSGSIGYADSAK	VGRGGGYFDY	ND / ND / ND	ND	1/9 (2.64)
GFTFDDYEMH	GISWNSGSIGYCDSVK	VGRGGGNFDY	4.47 / 4.75 / 5.39	4.87	4/9 (5.31)
GFTFYDYAMH	GISWNSGSIGYADSVK	VGRGGKYFVY	ND / ND / ND	ND	1/9 (4.48)
GFTFDDYAMH	GISWNFGSIIYAGSVK	VGRGGGYFDY	ND / ND / ND	ND	1/9 (3.01)
GFTIDDYAMH	GISWNKGGIGYADSVK	VGRGGGYFDY	ND / ND / ND	ND	0/9

The measurements come from Engelhart et al. 2022 (doi:10.1038/s41597-022-01779-4) through the FLAb antibody collection.